This is a selection; strong and weak results do not stand in their true shares. Activity calls are given as the source filed them.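 The calls were made as follows: active = survival measured by cellular ATP above 50% at 15 µg/ml in the first screen; inactive = the rest.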

The nature of this assay: protection against thapsigargin ER stress killing – CSM14.1 cells, ATP luminescence, primary screen (AID 1010).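 Also: cell death triggered by about 15 µM thapsigargin; ATP read 24 h after thapsigargin was added; plate controls were thapsigargin with DMSO for no effect and DMSO without thapsigargin for full effect.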 Particulars: CSM14.1 thapsigargin ER stress survival, hits give high values, screened at 15 µg/mL (by protocol).
With `Cc1ccc(SC(NC(=O)c2ccccc2)C(Cl)Cl)cc1` (stereo not given), the relative survival (cellular ATP) was inactive: 8.4%.

Take `Cc1cc(C)nc(SC(NC(=O)c2ccccc2)C(Cl)(Cl)Cl)n1` (stereo not given): the relative survival (cellular ATP) is inactive: 15%.

For the molecule `O=C(NC(SC1=NCCS1)C(Cl)(Cl)Cl)c1ccc(I)cc1` (stereo not given), the relative survival (cellular ATP) is inactive: 0.7%.

For `O=C(CF)NC(Sc1ccc(Cl)cc1)C(Cl)(Cl)Cl` (stereo not given), the relative survival (cellular ATP) was inactive: 4.8%.

With `COC(=O)c1ccc(OP(=O)(Oc2ccc(Cl)cc2C)SCC(C)C)cc1` (stereo not given), the relative survival (cellular ATP) was inactive: -8.5%.

Take `CCCCOP(=O)(OCCCC)SC`: the relative survival (cellular ATP) was inactive: 8.1%.

In the case of `COC(=O)NC(Sc1ccc(Cl)cc1)C(Cl)Cl` (stereo not given), the relative survival (cellular ATP) was inactive: 3.8%.

With `CCOC(=O)NC(Sc1nc2ccccc2o1)C(Cl)(Cl)Cl` (stereo not given), the relative survival (cellular ATP) was inactive: -0.5%.

As for `O=CNC(Sc1nc2ccccc2o1)C(Cl)(Cl)Cl` (stereo not given), the relative survival (cellular ATP) was inactive: 2.3%.

In the case of `CCCCSP(=O)(OCC(C)C)OCC(C)C`, the relative survival (cellular ATP) is inactive: 11.4%.

The record behind these values is PubChem BioAssay AID1010 (Sanford-Burnham Center for Chemical Genomics, 2008).
